Target: Gamma-glutamyl hydrolase (Homo sapiens, UniProt Q92820)
Test: Compound was tested for inhibitory potency against gamma-Glutamyl Hydrolase.

Protein sequences, listed by entry. Tags and fused reporters are not part of them.
UniProt Q92820, whole entry, looked up: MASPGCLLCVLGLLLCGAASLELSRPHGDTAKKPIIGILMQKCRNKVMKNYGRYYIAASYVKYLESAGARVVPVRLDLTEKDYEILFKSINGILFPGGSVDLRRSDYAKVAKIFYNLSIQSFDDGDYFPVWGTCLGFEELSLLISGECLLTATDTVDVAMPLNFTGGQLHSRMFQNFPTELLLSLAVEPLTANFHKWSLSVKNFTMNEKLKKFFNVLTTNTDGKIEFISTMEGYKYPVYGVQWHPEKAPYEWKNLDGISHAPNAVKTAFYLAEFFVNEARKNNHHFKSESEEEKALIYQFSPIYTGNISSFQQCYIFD

CP(=O)(O)N[C@@H](CCC(=O)O)C(=O)O
Ki: 0.93 nM

— ChEMBL document CHEMBL1130841, “Evaluation of phosphorus-containing inhibitors of gamma-glutamyl hydrolase” (Bioorg Med Chem Lett, 1998)
